High-throughput results: PubChem BioAssay, National Center for Advancing Translational Sciences (NCATS)
Only some compounds are listed: those with a hit (about 16% of all), similar ones and a draw of the others.
uPA surface inh: blocks generation of uPA at the cell surface. AID 540303. actives 0.31% (n = 330,000). cell surface uPA generation assay, qHTS. Potency, µM (series often up to 38.3 µM), for inactives: top-dose activity change, negative = inhibition, usual class: inhibitors; active = well fitted inhibition curve with a large enough effect; inconclusive = small, poorly fitted or top-dose-only effect; inactive = no such curve, though single readings can be large or run the other way; tested in mouse RAW 264.7 cells; note: potency is the fitted concentration of half-maximal effect; % is set by controls: 0 for no effect and ±100 for the full control effect; nearly all actives have a fitted effect of over 55% in size
TDP1 cell CPT: growth inhibition of DT40 Tdp1-/-;hTDP1 cells with camptothecin (screen for TDP1 inhibitors); AID 686979; chicken DT40 Tdp1-/-;hTDP1 cells + 20 nM CPT, ATP luminescence, 48 h; actives 12% (n = 420,000); Potency, µM (top dose mostly 46.2 µM), without a hit: at the highest dose activity change, negative = growth inhibition, hits mostly inhibitors; note: potency is the fitted concentration of half-maximal effect; % is set by controls: 0 for no effect and ±100 for the full control effect; nearly all actives have a fitted effect of over 55% in size
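Chicken DT40 Tdp1-/- cells complemented with human TDP1, 400 cells/well, exposed to compounds plus 20 nM camptothecin for at least 48 h at 37 C; viability read as ATP content by CellTiter-Glo luminescence.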
miR-21 reporter: miR-21 reporter, rising signal; HeLa miR-21 FLuc reporter, luciferase, 48 h; Potency, µM (titrated, usually from 38.3 µM), for the others: at the top dose reporter change, positive = more light; 340,000 tested, under 10 active; AID 2288; active = well fitted rising curve with a large enough effect; inconclusive = small, poorly fitted or top-dose-only effect; inactive = no such curve, though single readings can be large or run the other way;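 also: % of control where 0% means no effect; miR-21 action dims this reporter so a rising signal means less miR-21 action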
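HeLa cells endogenously expressing miR-21, stably carrying CMV-driven firefly luciferase with a downstream miR-21 binding site, 2000 cells/well. Titrations up to approximately 40 uM, 48 hours; luciferase luminescence read.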
TDP1 inh: TDP1 (human) enzyme inhibition; Potency, µM (highest dose often 130 µM), without a hit: at the highest dose activity change, negative = inhibition, most hits filed as inhibitors; recombinant TDP1, AlphaScreen DNA substrate cleavage; actives 0.28% (n = 350,000); Q9NUW8; note: potency is the fitted concentration of half-maximal effect; % is set by controls: 0 for no effect and ±100 for the full control effect; nearly all actives have a fitted effect of over 40% in size
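Compounds were preincubated with Tdp1 (1 nM final) for 15 min at room temperature before substrate (15 nM final) started a 5 min reaction; beads (10 ug/ml final) were then added for 10 min before AlphaScreen detection.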
TDP1 cell noCPT: qHTS for Inhibitors of human tyrosyl-DNA phosphodiesterase 1 (TDP1): qHTS in cells in absence of CPT | actives 15% (n = 420,000) | AID 686978, 2013 | DT40 Tdp1-/- hTDP1 cells, no CPT, ATP luminescence, 48 h | Potency, µM (highest dose often 46.2 µM), without a hit: at the top dose activity change, negative = growth inhibition, usual class: inhibitors; note: potency is the fitted concentration of half-maximal effect; % is set by controls: 0 for no effect and ±100 for the full control effect; nearly all actives have a fitted effect of over 55% in size
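Luminescent ATP content (CellTiter-Glo) served as the growth readout. Knockout chicken DT40 cells expressing human TDP1 were exposed to compounds without camptothecin for a minimum 48 hr at 37 °C.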
The depositor's hits bear a star; u = inconclusive; x = no result; [ ] = another dose, or the depositor's remark. Unless noted, calls come from the whole dose curve; as a rule, active = well fitted curve in the direction sought with a large enough effect; inconclusive = small, poorly fitted or top-dose-only effect, or another doubt; inactive = no such curve, though single readings can be large; an effect the other way counts as inactive or inconclusive.

No.	SMILES	uPA surface inh	TDP1 cell CPT	miR-21 reporter	TDP1 inh	TDP1 cell noCPT
1	Cn1nc(CC(=O)NCc2ccc(C(F)(F)F)cc2)c2ccccc2c1=O	-8%	29µM*	10%	2%	10µM*
2	CCc1nnc2c(Nc3ccc(N(CC)CC)cc3C)nc3ccccc3n12	x	18µM*	1%	6%	18µM*
3	CCN(CC)C(=O)C1CCCN(Cc2cccc(F)c2)C1 (stereo not drawn)	x	-1%	-4%	-3%	-11%
4	Cc1cc(C)c(NC(=O)CSCc2nc3sc(C)c(C)c3c(=O)[nH]2)c(Cl)c1	12%	u	x	-3%[56.1 µM]	u
5	N#Cc1c(NC(=O)c2cc([N+](=O)[O-])ccc2N2CCOCC2)sc2c1CCCC2	0%	6%	-37%	-3%	-26%
6	CCOC(=O)/C(C(=O)Nc1ccc(Cl)cc1Cl)=C1/NC(C)(C)Cc2ccccc21	x	x	-2%	-4%	x
7	CN1C(CC(=O)Nc2ccc(Cl)cc2Cl)c2ccccc2CC1(C)C (stereo not drawn)	-4%	10µM*	19%	-4%	16µM*
8	Cc1cc(C(=O)N2CCN(c3ccc([N+](=O)[O-])cc3)CC2)co1	10%	u	9%	7%	u
9	Cn1c(C(=O)N2CCN(c3ccc([N+](=O)[O-])cc3)CC2)cc2c(=O)[nH]c3ccccc3c21	-2%	u	-2%	5%	12µM*
10	O=c1[nH]c2ccc(NS(=O)(=O)c3ccc(Cl)cc3)cc2[nH]1	7%	-12%	0%	3%	-11%
11	COc1ccc(C(=O)N(Cc2ccccc2)Cc2ccccc2)cc1COc1ccc(NC(C)=O)cc1	x	x	x	3%	x
12	COc1ccc(F)cc1S(=O)(=O)Nc1ccc(C)cc1	-8%	-3%	11%	0%	23µM*
13	CCOc1ccc(NS(=O)(=O)c2ccc(OC)c(C)c2)cc1	x	u	-2%	7%	u
14	CCOc1ccc(NS(=O)(=O)c2cc(Cl)ccc2OC)cc1	6%	u	20%	6%	16µM*
15	COc1ccc(C(=O)N(Cc2ccccc2)Cc2ccc(OC)c(COc3ccc(NC(C)=O)cc3)c2)cc1	x	u	x	0%	22µM*
16	COc1ccc(Cl)cc1S(=O)(=O)Nc1ccc2[nH]c(=O)[nH]c2c1	x	21µM*	19%	0%	16µM*
17	CNS(=O)(=O)c1ccc(CCC(=O)N2CCN(c3ccccc3OC)CC2)cc1	-7%	u	12%	6%	u
18	CCCCCNC(=O)C1CCC(Cn2c(=O)c3sccc3n(CC(=O)N3CCCC3)c2=O)CC1 (stereo not drawn)	x	-5%	-1%	5%	-20%
19	COc1ccc(NC(C)=O)cc1S(=O)(=O)Nc1ccc(OCc2ccccc2)cc1	-2%	16µM*	-1%	x	15µM*
20	COc1ccc(OC)c(/C=N/NC(=O)CC(=O)NC2CCCCC2)c1	0%	9%	-1%	1%	-19%
21	CCCC(=O)C1=C(O)C(C(=O)OC)C(C)(C)CC1=Nc1ccccc1 (stereo not drawn)	1%	-27%	-1%	5%	u
22	CCCC(=O)C1=C(O)C(C(=O)OC)C(C)(C)CC1=Nc1cccc2ccccc12 (stereo not drawn)	11%	u	-3%	3%	23µM*
23	CC(C)=CCc1c(-c2ccc(O)cc2O)oc2c3c(cc(O)c2c1=O)OC(C)(C)C=C3	15%	21µM*	x	x	u
24	CC1CCCCC1NS(=O)(=O)c1ccc(S(=O)(=O)NCc2ccncc2)cc1 (stereo not drawn)	x	6.5µM*	14%	5%	7.3µM*
25	CC(=O)CCS(=O)(=O)c1ccc(NC(C)=O)cc1	u	13µM*	7%	2%	18µM*
26	CCOc1ccc(S(=O)(=O)NC2CCCCC2C)cc1 (stereo not drawn)	-24%	u	x	x	u
27	CCOc1cc(S(=O)(=O)NCc2ccncc2)ccc1Cl	-7%	0.52µM*	17%	3%	0.58µM*
28	CC(=O)Nc1ccc(S(=O)(=O)CCC(=O)O)cc1	5%	-16%	-11%	0%	-5%

Reprinted: entries 1–3
No.	SMILES	uPA surface inh	TDP1 cell CPT	miR-21 reporter	TDP1 inh	TDP1 cell noCPT
1	Cn1nc(CC(=O)NCc2ccc(C(F)(F)F)cc2)c2ccccc2c1=O	-8%	29µM*	10%	2%	10µM*
2	CCc1nnc2c(Nc3ccc(N(CC)CC)cc3C)nc3ccccc3n12	x	18µM*	1%	6%	18µM*
3	CCN(CC)C(=O)C1CCCN(Cc2cccc(F)c2)C1 (stereo not drawn)	x	-1%	-4%	-3%	-11%
